# PDI turbidity: inhibitors of human PDI, primary screen, biochemical, turbidity, single point, plate reader; AID 588391, 2011; 350,000 compounds, 0.052% hits; PDI insulin aggregation turbidity, A650, 90 min; inhibition, % at 10 µM; Protein disulfide-isomerase (Homo sapiens), P07237;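 active = mean inhibition across replicates of 30% or more, whatever share of single replicates reach that level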
# ERp5 inh: inhibitors of ERp5-driven insulin aggregation, primary screen, biochemical, turbidity, absorbance 650 nm, single point; Protein disulfide-isomerase A6 (Homo sapiens), Q15084; 90 min; inhibition, % at 9.99 µM; 350,000 compounds, 0.05% hits;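 active = mean replicate inhibition above about 25%, with every replicate also reaching it, limit read from the data, passing the limit was not always enough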
# Yeast UUG start: modulators of yeast start codon fidelity, primary screen, whole organism, S. cerevisiae, single point, plate reader; S. cerevisiae UUG-firefly luciferase reporter, luminescence/redox ratio; activity score, % at 18.7 µM; 0.13% of 350,000 active; AID 602363, 2012;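 active = replicate mean at a twofold rise or more, about +100% in these data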;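 also: firefly luciferase made from a UUG start codon reports start codon fidelity; reporter light over untreated wells divided by growth signal over untreated wells; some hits fall short of that in this replicate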
# NR1D1 modulator: modulators of Rev-erb alpha DNA binding, primary screen, biochemical, FITC-DNA, fluorescence polarization, uHTS; Nuclear receptor subfamily 1 group D member 1 (Homo sapiens), P20393; Rev-erbα–FITC-DNA binding, 90 min; 370,000 compounds, 0.79% hits; AID 1259318, 2017; activity, % at 10 µM;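 active = activity above about 14%, limit read from the data; passing the limit was not always enough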;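 note: 0% = DMSO wells with 35 nM protein and 100% = DMSO wells with 750 nM protein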
# GSIS activator: GLuc luminescence reporter in INS-1E cells, primary screen for activators of glucose-dependent secretion of insulin; 370,000 compounds, 0.61% hits; AID 743287, 2014; INS-1E GLuc reporter insulin secretion, 2-3 h; activation, % at 16.6 µM;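 active = lowest replicate activation of at least 40%, so every replicate reaches that level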;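 note: 0% = median of neutral control wells and 100% = median of IBMX positive control wells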
# SMARCA2 act: SMARCA2 (BRM) function activators, primary screen, cell-based, luminescence, high throughput; MG213 cells, MMTV-luciferase reporter, dexamethasone, overnight; activation, % at 9.1 µM; 370,000 compounds, 1% hits; AID 652017, 2013; in the data active = activation above about 7.8%;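 note: 0% = vehicle wells and 100% = reference activator wells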
# Numbers without * were called inactive; . = not tested or not shown; ! = repeats disagree. This is a sample that favours compounds with a hit; in the whole collection about 2.1% have one here.
smiles,PDI turbidity,ERp5 inh,Yeast UUG start,NR1D1 modulator,GSIS activator,SMARCA2 act
Cc1noc(C)c1NC(=O)N[C@H]1CC[C@H](CC(=O)N2CCCCC2)O[C@H]1CO,.,-1.1,-5.1,.,-12.1,.
C[C@@H]1CCCCO[C@@H](CN(C)S(=O)(=O)c2cccs2)[C@H](C)CN([C@@H](C)CO)C(=O)c2cc(NC(=O)C3CCCCC3)ccc2O1,.,-10.6,-6.5,.,2.9,.
COC(=O)[C@H]1Cc2c([nH]c3ccccc23)[C@H](c2ccccc2)N1,13.4,-3.0,-11.9,-2.4,7.6,-0.8
O=C(O)C1Cc2c([nH]c3ccccc23)C(c2ccc3c(c2)OCO3)N1 (stereo not drawn),0.3,0.3,-14.7,-2.9,45.7*,3.9
COc1ccc(NC(=O)N(C)C[C@@H]2Oc3c(NC(=O)c4cc(C)nn4C)cccc3C(=O)N([C@H](C)CO)C[C@H]2C)cc1,.,-0.1,.,.,24.3,.
O=C(Oc1ccc(O)cc1)C12CC3CC(CC(C3)C1)C2,65.3*,-0.9,.,12.3,-15.5,4.2
COCC#Cc1cnc2c(c1)C(=O)N([C@@H](C)CO)C[C@@H](C)[C@@H](CN(C)C(=O)NC1CCCC1)O2,.,-14.7,56.3,.,11.4,.
COCC#Cc1cnc2c(c1)C(=O)N([C@H](C)CO)C[C@@H](C)[C@H](CN(C)C(=O)NC1CCCC1)O2,.,59.3*,-12.2,.,1.6,.
C[C@@H]1CN([C@H](C)CO)C(=O)c2cc(C#CCN(C)C)cnc2O[C@H]1CN(C)S(=O)(=O)c1cn(C)cn1,.,1.4,-4.6,.,40.4*,.
CC(C)C#Cc1cnc2c(c1)C(=O)N([C@@H](C)CO)C[C@@H](C)[C@H](CN(C)C(=O)c1ccccc1F)O2,.,32.2*,12.7,.,-7.2,.
COCC#Cc1cnc2c(c1)C(=O)N([C@@H](C)CO)C[C@H](C)[C@@H](CN(C)C(=O)NC1CCCC1)O2,.,49.8*,-0.3,.,12.1,.
O=C(NC1CCCCC1)N[C@@H]1CC[C@H](CCNS(=O)(=O)c2ccccc2)O[C@@H]1CO,.,1.1,-2.4,.,9.8,.
Cc1noc(C)c1NC(=O)N(C)C[C@H]1Oc2ccc(NC(=O)Nc3ccccc3)cc2C(=O)N([C@@H](C)CO)C[C@@H]1C,.,4.6,-2.2,.,5.3,.
CN1C(=O)c2cc(NC(=O)C3CCCCC3)ccc2OC[C@@H]2O[C@@H](CC(=O)NCc3ccccc3F)CC[C@@H]21,.,-0.8,.,.,-3.8,.
C[C@@H]1CN([C@H](C)CO)C(=O)c2cc(-c3ccc(C#N)cc3)cnc2O[C@@H]1CN(C)C(=O)c1cccnc1,.,-0.9,9.4,.,17.6,.

# Some of these compounds in order of SMILES length, descending.
smiles,PDI turbidity,ERp5 inh,Yeast UUG start,NR1D1 modulator,GSIS activator,SMARCA2 act
COc1ccc(NC(=O)N(C)C[C@@H]2Oc3c(NC(=O)c4cc(C)nn4C)cccc3C(=O)N([C@H](C)CO)C[C@H]2C)cc1,.,-0.1,.,.,24.3,.
Cc1noc(C)c1NC(=O)N(C)C[C@H]1Oc2ccc(NC(=O)Nc3ccccc3)cc2C(=O)N([C@@H](C)CO)C[C@@H]1C,.,4.6,-2.2,.,5.3,.
CN1C(=O)c2cc(NC(=O)C3CCCCC3)ccc2OC[C@@H]2O[C@@H](CC(=O)NCc3ccccc3F)CC[C@@H]21,.,-0.8,.,.,-3.8,.
COC(=O)[C@H]1Cc2c([nH]c3ccccc23)[C@H](c2ccccc2)N1,13.4,-3.0,-11.9,-2.4,7.6,-0.8

# Next compounds follow:
smiles,PDI turbidity,ERp5 inh,Yeast UUG start,NR1D1 modulator,GSIS activator,SMARCA2 act
COc1cccc(NC2SC(=O)N(c3ccccc3)C2=O)c1 (stereo not drawn),-6.1,0.0,-13.9,0.3,-8.8,8.0*
COc1cccc(CN2C[C@@H]3N[C@H](C2)C3c2ccc(-c3cccc(C#N)c3)cc2)c1 (stereo partly drawn),.,5.1,.,.,-5.4,.
COc1cccc(-c2ccc(C3[C@@H]4CN(Cc5cccc(F)c5)C[C@H]3N4)cc2)c1 (stereo partly drawn),.,10.0,.,.,754.9*!,.
COc1ccc(-c2ccc(C3[C@@H]4CN(Cc5cccc(OC)c5)C[C@H]3N4)cc2)cc1 (stereo partly drawn),.,-9.7,.,.,51.0*!,.
COc1cccc(CN2C[C@@H]3N[C@H](C2)C3c2ccc(-c3ccncc3)cc2)c1 (stereo partly drawn),.,7.6,.,.,6.3,.
COc1cccc(C(=O)N(c2ccc(C)cc2)C2C=CS(=O)(=O)C2)c1 (stereo not drawn),-0.4,2.0,-8.7,4.2,0.1,7.9*
COc1ccc(S(=O)(=O)Nc2ccc3c(c2)C(=O)N([C@H](C)CO)C[C@H](C)[C@@H](CN(C)Cc2ccc(Cl)c(Cl)c2)OCCCC[C@@H](C)O3)cc1,.,7.5,.,.,-18.8,.
CCOC(=O)c1ccc(S(=O)(=O)N2CCC(C(=O)Nc3nnc(C)o3)CC2)cc1,-13.7,-6.3,-19.8,4.4,58.4*,0.6
CCOC(=O)c1ccc(S(=O)(=O)N2CCC(C(=O)OCC)CC2)cc1,-3.4,0.5,-5.3,-1.9,1.0,-0.6
COc1ccc(-n2c(SCC(=O)c3c(N)n(C)c(=O)n(C)c3=O)nc3ccccc32)cc1,4.1,.,43.2,-1.9,.,-0.4
Cn1c(N)c(C(=O)CSc2nc3ccccc3n2-c2ccccc2)c(=O)n(C)c1=O,-12.5,.,-18.4,-22.1,63.4*,4.9
CCOc1cc(C2C3=C(CC(C)(C)CC3=O)Nc3n[nH]c(C)c32)ccc1O (stereo not drawn),11.5,0.0,.,1.4,42.8*,-1.0
CC(=O)N(C)C[C@@H]1Oc2ccccc2CC(=O)N(C)C[C@H]1C,.,.,.,.,-4.3,.
COc1ccc(C#Cc2ccc3c(c2)[C@]2(C(=O)N3)[C@H](c3ccc(O)cc3)N3[C@H](c4ccccc4)[C@H](c4ccccc4)OC(=O)[C@H]3[C@@H]2C(=O)NC[C@H](O)c2ccccc2)cc1,.,-11.4,-2.5,.,.,.
O=C(COC(=O)C1CCC1)NC(=O)c1ccccc1,-3.2,1.8,-7.6,4.3,42.0*,-1.5

compound | PDI turbidity | ERp5 inh | Yeast UUG start | NR1D1 modulator | GSIS activator | SMARCA2 act
C[C@H]1CN([C@@H](C)CO)C(=O)Cc2cc(NC(=O)CCN3CCOCC3)ccc2O[C@H]1CN(C)Cc1ccc(C(=O)Nc2ccccc2N)cc1 | . | 17.1 | . | . | 12.2 | .
C[C@@H]1CCCCO[C@H](CN(C)Cc2ccncc2)[C@H](C)CN([C@H](C)CO)C(=O)c2cc(NS(=O)(=O)c3cn(C)cn3)ccc2O1 | . | -2.5 | -2.6 | . | 3.3 | .
Cc1cc(C)cc(NC(=O)Cc2ccc(-n3cccc3)cc2)c1 | -12.6 | . | -2.4 | -2.8 | 53.9* | -4.1
CN(CC(=O)Nc1ccc(F)cc1)CC(=O)NC1CCCCC1 | 11.2 | 25.2* | 9.0 | 2.5 | -4.1 | -4.0
Nc1nc(N)c(N=O)c(Nc2cccc(Cl)c2)n1 | . | -6.3 | . | 4.0 | 41.2* | -0.8
O=C(Nc1nccs1)c1cc(N2CCOCC2)nc2ccccc12 | -4.6 | . | -7.0 | 4.0 | 46.0* | -0.7
CC(=O)N1CCN(C(=O)COC(=O)c2ccc(S(C)(=O)=O)cc2)CC1 | -1.8 | 4.9 | -17.7 | -1.1 | 66.8* | -2.1
CC(C)CN1CCN(C(=O)COC(=O)c2ccc(S(C)(=O)=O)c([N+](=O)[O-])c2)CC1 | 0.1 | 0.5 | 4.3 | -7.4 | 138.3* | -10.8
CC(OC(=O)c1ccc(S(C)(=O)=O)c([N+](=O)[O-])c1)C(=O)NC1C2CC3CC(C2)CC1C3 (stereo not drawn) | 3.5 | 1.3 | -13.2 | -7.2 | 142.9* | 3.8
CS(=O)(=O)c1ccc(C(=O)OCC(=O)N2CCCc3ccccc32)cc1 | -3.3 | 14.1 | -6.4 | -1.8 | -5.0 | -2.5

# Screening data from PubChem.
